We go through one compound from patent US20230149421A1, “MEDICAMENT FOR PREVENTING OR TREATING IRRITABLE BOWEL SYNDROME OR INFLAMMATORY BOWEL DISEASE” (priority 2020, published 2023).

In experiment [1] the test system is TNF. The experiment can be described thus: TNF level in colonic tissue (ELISA), DNBS-induced colitis model. It is filed as in vivo, Sprague-Dawley rats. As to conditions: DNBS rats; test compound group, oral. For orientation: ELISA stands for enzyme-linked immunosorbent assay.
Experiment [2] deals with IL-1β. The experiment can be described thus: IL-1β level in colonic tissue (ELISA), DNBS-induced colitis model. The class given is in vivo, Sprague-Dawley rats. As to conditions: DNBS rats; test compound groups (3, 10, 30 mg/kg) oral.

Turning to `O=C1CC(=O)N(c2ccc(NC(=O)c3ccccc3I)cc2)c2ccc3ccccc3c2N1` [Compound B48, 5-[4-(2-iodobenzoylamino)phenyl]-1H-naphtho[1,2-b][1,4]diazepine-2,4(3H,5H)-dione], the “TNF in colonic tissue (inflammation index)” value in experiment [1] was “not affected”. The “IL-1β in colonic tissue (inflammation index)” value in experiment [2] was “significantly decreased”.
